SMILES strings stand for the structures.

The test addresses T1, Dihydrofolate reductase (Mycobacterium avium, UniProt O30463).
T1 sequence (O30463 whole entry): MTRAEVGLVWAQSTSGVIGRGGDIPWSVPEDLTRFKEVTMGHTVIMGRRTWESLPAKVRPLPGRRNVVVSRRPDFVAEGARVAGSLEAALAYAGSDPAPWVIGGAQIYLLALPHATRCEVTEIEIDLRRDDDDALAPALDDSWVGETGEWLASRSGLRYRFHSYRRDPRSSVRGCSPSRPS
As to the kind of experiment: Inhibition of Mycobacterium avium dihydrofolate reductase.

The IC50 is the point on the concentration scale where inhibition reaches its midpoint. In turn, `CCN(Cc1ccccc1)c1ccc2nc(N)nc(N)c2c1` returned an IC50 of 1.1 nM.
